This passage reports k (rate constant of the exponential plateau fit of exchange percentage against complex concentration) results from paper PMC10616699.

For the assay, the target named is myofilaments of membrane-permeabilized human cardiomyocytes (human (endogenous in cardiomyocytes)). In words: troponin exchange in permeabilized cardiomyocytes, read by phos-tag gel of cTnI; membrane-permeabilized cells of a highly phosphorylated human sample incubated with different concentrations of non-phosphorylated recombinant troponin complex; exchange as percent non-phosphorylated cTnI of total cTnI; exponential plateau curve fit (Ymax, k), n = 2.
With “recombinant human cardiac troponin complex with cTnT R278C (from UniProt P45379-6 1-288; P19429 1-210; P63316 1-161)”, the k (rate constant of the exponential plateau fit of exchange percentage against complex concentration) amounted to 3.1. The same measure for “recombinant human cardiac troponin complex, wild-type (from UniProt P45379-6 1-288; P19429 1-210; P63316 1-161)”: 15; for “recombinant human cardiac troponin complex with cTnT I79N (from UniProt P45379-6 1-288; P19429 1-210; P63316 1-161)”: 22.2; for “recombinant human cardiac troponin complex with cTnT R94C (from UniProt P45379-6 1-288; P19429 1-210; P63316 1-161)”: 6.2.
